# The list shows a part of the results, in another mix than the full data. Records with an inconclusive call do not appear. Active and inactive are the calls of the source. Calls follow the shape of the dose curve; as a rule, active = well fitted curve in either direction with a large enough effect; inconclusive = small, poorly fitted or top-dose-only effect, or another doubt; inactive = flat fitted curve, though single readings scatter.
# Test system: Hsp90 C-terminal peptide / TPR2A (Hop) interaction, human
# Assay: qHTS Assay for Disrupters of an Hsp90 Co-Chaperone Interaction
# Settings: AlphaScreen TPR2A-His6 binding biotin-Hsp90 C-terminal peptide; at 57 µM (top of the series)
# Source text: NIH Chemical Genomics Center [NCGC]
# NIH Molecular Libraries Screening Centers Network [MLSCN]
# Hsp90 (heat shock protein 90) is the essential molecular chaperone and it accounts for 1-2% of all cytosolic proteins and is critical for the activity of diverse cellular proteins that are involved in a variety of cellular processes, including development, cell cycle, and steroid hormone signaling. Its client proteins include signaling kinases such as IGF1R, Akt, v-Src, Raf-1; regulators of cell survival such as Bcr-Abl; and transcription factors such as mutated p53, estrogen and progesterone receptors. Hsp90 has emerged as an important target for cancer treatment due to its essential role in maintaining transformation and regulating the function of oncogenic signaling proteins.
# The in vivo function of Hsp90 is regulated by the binding and hydrolysis of ATP at its N-terminal. Geldanamycin binds to ATP site and inhibit Hsp90 function. […]
# The assay was performed on 1536-well white plate (untreated solid bottom). […] Plates were read on EnVision (PerkinElmer, Boston, MA).TPR2A-His6 was produced using a bacteria expression system and purified using a well developed method (Ghosh et al., 2000). […] TPR2A-His6 binding to biotin-Hsp90 will bring streptavidin donor beads and nickel chelate acceptor beads (PerkinElmer) together and can be measured by Alpha reading by EnVision (PerkinElmer). […]
# % is scaled to controls: 0 for no effect and ±100 for the full control effect.
row,Structure (SMILES),"activity change, negative = inhibition"
1,O=[N+]([O-])C(Cl)(Cl)Cl,inactive: -1.72%
2,CN(CCCl)CCCl,inactive: -1.53%

# From PubChem BioAssay AID595 (National Center for Advancing Translational Sciences (NCATS), 2007)
